Results on 115 compounds are retold here after PubChem BioAssay AID504467 (National Center for Advancing Translational Sciences (NCATS), 2011).

The list shows a part of the results, in another mix than the full data. Results filed as inconclusive are left out. A call without a number means that no potency is given here. Calls of active or inactive are those of the source. Calls come from the whole dose curve; as a rule, active = well fitted inhibition curve with a large enough effect; inconclusive = small, poorly fitted or top-dose-only effect, or effect the other way; inactive = flat fitted curve, though single readings scatter.
Potency is the fitted concentration of half-maximal effect.

The experiment in a line: qHTS screen for small molecules that inhibit ELG1-dependent DNA repair in human embryonic kidney (HEK293T) cells expressing luciferase-tagged ELG1. Note: nearly all actives have a fitted effect of over 55% in size. The conditions noted are these: HEK293T ELG1-luciferase reporter, luminescence, 16 h, DNA damage induced by 5-fluorouridine; series mostly up to 46.1 µM. In general terms: In qHTS, concentration-response curves come from the screen itself.
On to `Nc1cc(N)c2nonc2c1[N+](=O)[O-]`, for which the Potency result was “inactive”.

Turning to `CC(C)CC(=O)NC(Sc1ccc(Cl)cc1)C(Cl)(Cl)Cl` (stereo not given), the Potency result was “inactive”. Under `O=C(NC(Sc1ccncn1)C(Cl)(Cl)Cl)c1ccccc1` (stereo not given) stands “inactive”; under `COc1ccccc1OP(=O)(Nc1ccc(C)cn1)Oc1ccccc1OC`, “inactive”; under `CN1CCCC(OC(=O)C(c2ccccc2)c2ccccc2)C1` (stereo not given), “inactive”. As to `Clc1ccc(Cl)c(NC2=NCC(CBr)S2)c1` (stereo not given), the Potency result was “inactive”.

`NC(=O)c1cc([N+](=O)[O-])cc([N+](=O)[O-])c1N`: the Potency entry was “inactive”. `Cc1ccc(N/C(=N/P(=O)(N2CCOCC2)N2CCOCC2)N2CCOCC2)cc1`: the Potency result is “inactive”. Take `CN(C(=O)Cc1ccc(Cl)c(Cl)c1)[C@H]1CCCC[C@H]1N1CCCC1`: the Potency entry was “inactive”. For `CCN(N=Nc1nonc1N)c1nonc1N`, the Potency entry was “inactive”. Under `Nc1cccc2ccc([As](=O)(O)O)cc12` stands “inactive”; under `Cc1ccc(NP(=O)(Oc2ccccc2F)Oc2ccccc2F)nc1`, “inactive”; under `Cc1cc(SC(NC(=O)c2ccc(F)cc2)C(Cl)(Cl)Cl)ncn1` (stereo not given), “inactive”. Under `CCOP(=O)(Nc1ccccc1)OCC` stands “inactive”; under `CC(=O)Nc1ccc([As](=O)(O)O)cc1`, “inactive”. For `O=C(O)c1ccccc1[As](=O)(O)O`, the Potency result was “inactive”. Under `O=[N+]([O-])c1cccc(NC2=NCC(CBr)S2)c1` (stereo not given) stands “inactive”. Under `O=C(O)CNc1ccc([As](=O)(O)O)cc1` stands “inactive”; under `CC(C)(C)C(=O)NC(Sc1ccncn1)C(Cl)(Cl)Cl` (stereo not given), “inactive”. As for `O=[N+]([O-])c1ncn(CCn2ncnc2[N+](=O)[O-])n1`, the Potency result was “inactive”.

Turning to `CC(C)=N/N=C(\N)N[N+](=O)[O-]`, the Potency result is “inactive”. `Nc1ccc([As](=O)(O)c2ccc(N)cc2)cc1`: the Potency result is “inactive”. Take `CCN(/C(=N/P(=O)(N1CCOCC1)N1CCOCC1)N1CCOCC1)c1ccc(OC)cc1`: the Potency entry was “inactive”. With `O=[N+]([O-])c1cccc2n[nH]nc12`, the Potency result was “inactive”. For `CC(=O)N1C2C3N(C(C)=O)C1C1N(C(C)=O)C(C(N1C(C)=O)N3C(C)=O)N2C(C)=O`, the Potency entry is “inactive”. Turning to `CCc1nc2c(n1)c1c(non1O)c1c2no[n+]1[O-]`, the Potency result was “inactive”. Take `O=[N+]([O-])c1cc([N+](=O)[O-])c(CCNc2ccccc2)c([N+](=O)[O-])c1`: the Potency result was “inactive”.

`Cc1ccc(NP(=O)(Oc2ccccc2)Oc2ccccc2)nc1`: the Potency entry was “inactive”. Consider `COc1ccc(C2=NCC(CBr)S2)cc1` (stereo not given), for which the Potency result was “inactive”. In the case of `c1nnnn1CCn1cnnn1`, the Potency result was “inactive”. Regarding `CC(C)C(=O)NC(Sc1ccccc1)C(Cl)(Cl)Cl` (stereo not given), the Potency entry is “inactive”.

Turning to `O=P(Nc1nccs1)(c1ccccc1)c1ccccc1`, the Potency result is “inactive”. Under `C(Cc1nn[nH]n1)Cc1nn[nH]n1` stands “inactive”; under `Nc1ccc([As](=O)(O)c2ccc([N+](=O)[O-])cc2)cc1`, “inactive”; under `O=C(OC1CN2CCC1CC2)c1cccc(Cl)c1` (stereo not given), “inactive”.

For the compound `O=[N+]([O-])c1ncn(CCn2cnc([N+](=O)[O-])n2)n1`, the Potency result was “inactive”.

With `CC(=O)NC(SC(=S)N(C)C)C(Cl)(Cl)Cl` (stereo not given), the Potency entry was “inactive”. `O=[As](O)(c1ccccc1)c1ccc(O)cc1`: the Potency result is “inactive”. As for `C[C@H]1OP(=O)(Oc2ccccc2)[C@H](O)[C@H](O)[C@H]1N=[N+]=[N-]` (stereo not given in full), the Potency entry was “inactive”. With `O=P(Nc1nc2ccccc2s1)(c1ccccc1)c1ccccc1`, the Potency entry was “inactive”.

For the compound `O=P(Nc1ccccn1)(c1ccc(Br)cc1)c1ccc(Br)cc1`, the Potency entry was “inactive”. Under `CN(C)C1(CNC(=O)c2ccc(Cl)c(S(N)(=O)=O)c2)CCCCC1` stands “inactive”. Turning to `CC(NC(=O)COC(=O)C(O)(c1ccccc1)c1ccccc1)c1ccccc1` (stereo not given), the Potency result is “inactive”. Regarding `Cc1ccccc1OP(=O)(Nc1ccccn1)Oc1ccccc1C`, the Potency was active: 23.1 µM. In the case of `CC(=O)NC(SC(=S)N(CC(C)C)CC(C)C)C(Cl)(Cl)Cl` (stereo not given), the Potency result was “inactive”. Take `COC(=O)c1cc2c(s1)N=C(c1ccccc1)N(C)P2(=O)N1CCOCC1` (stereo not given): the Potency entry is “inactive”.

On to `CCC(=O)N1C2C3N(C(=O)CC)C1C1N(C(=O)CC)C(C(N1C(=O)CC)N3C(=O)CC)N2C(=O)CC`, for which the Potency entry was “inactive”. Under `O=C(OC1CN2CCC1CC2)c1ccccc1` (stereo not given) stands “inactive”; under `CCNC(=S)/N=C(\N)N[N+](=O)[O-]`, “inactive”; under `O=C(NC1CCS(=O)(=O)C1)NP(=S)(Oc1ccccc1)Oc1ccccc1` (stereo not given), “inactive”. On to `CCOC(=O)NC(Sc1ccccc1)C(Cl)(Cl)Cl` (stereo not given), for which the Potency result is “inactive”.

Take `Cc1ccc(NP(=O)(Oc2cccc(C)c2)Oc2cccc(C)c2)nc1`: the Potency entry is “inactive”. For `c1ccc(-c2nn[nH]n2)c(-c2nn[nH]n2)c1`, the Potency entry was “inactive”. Consider `CC(=O)Nc1ccc(Oc2c([N+](=O)[O-])cc([N+](=O)[O-])cc2[N+](=O)[O-])cc1`, for which the Potency entry is “inactive”. On to `CC(=O)Nc1ccc([As](=O)(O)O)c(O)c1`, for which the Potency result is “inactive”. Take `CC(=O)c1ccc(N2CC2c2ccncc2)cc1` (stereo not given): the Potency entry is “inactive”. Regarding `C[C@H]1OP(=O)(Oc2ccccc2)C[C@@H]2O[C@@H]21` (stereo not given in full), the Potency result was “inactive”. Consider `C[C@@H]1C=CCP(=O)(Oc2ccccc2)O1` (stereo not given in full), for which the Potency entry was “inactive”.

As to `Cc1ccccc1CN(C)C(=O)COC(=O)C(O)(c1ccccc1)c1ccccc1`, the Potency result is “inactive”. Under `CC(C)(C)C(=O)NC(Sc1ccccc1)C(Cl)(Cl)Cl` (stereo not given) stands “inactive”; under `CCOc1ccc(C2=NCC(CBr)S2)cc1` (stereo not given), “inactive”. Turning to `CCOP(=O)(Nc1cccc2ccccc12)OCC`, the Potency result was “inactive”. Regarding `COc1cc(C2NCCC3(OCCO3)C2(C)C)cc(OC)c1OC` (stereo not given), the Potency result is “inactive”. Under `CCCOP(=S)(Nc1nc(N)cc(=O)[nH]1)OCCC` stands “inactive”; under `Nc1cccc2c([As](=O)(O)O)cccc12`, “inactive”; under `Cc1ccc(NCCc2c([N+](=O)[O-])cc([N+](=O)[O-])cc2[N+](=O)[O-])cc1`, “inactive”. For the compound `O=[As](O)(c1cccc(O)c1)c1cccc(O)c1`, the Potency entry was “inactive”. Under `CS(=O)(=O)c1ccc(Cl)c(NC(=O)COC(=O)C(O)(c2ccccc2)c2ccccc2)c1` stands “inactive”. Under `O=[As](O)(O)c1cccnc1` stands “inactive”. With `CN(C(=O)Cc1ccccc1)[C@@H]1CC[C@]2(CCCO2)C[C@H]1N1CCCC1`, the Potency entry is “inactive”. In the case of `CCOP1(=S)c2c(C)nn(CCC#N)c2N=C(c2ccc(F)cc2)N1C` (stereo not given), the Potency result was “inactive”. `N#CCCN(C(=O)COC(=O)C(O)(c1ccccc1)c1ccccc1)c1ccc(F)cc1`: the Potency entry was “inactive”. Under `NC(=O)Nc1ccc([As](=O)(O)O)cc1` stands “inactive”; under `Nc1ccccc1[As](=O)(O)c1ccccc1`, “inactive”; under `O=C(O)COc1ccc([As](=O)(O)O)cc1[N+](=O)[O-]`, “inactive”. Under `CS(=O)(=O)c1cc([N+](=O)[O-])c2no[n+]([O-])c2c1` stands “inactive”; under `O=P(Nc1nccs1)(Oc1ccccc1)Oc1ccccc1`, “inactive”; under `O=P(Nc1nccs1)(c1ccccc1)c1nc2ccccc2s1` (stereo not given), “inactive”. Under `CCOP1(=S)c2c(C)nn(CCC#N)c2N=C(c2ccccc2F)N1C` (stereo not given) stands “inactive”; under `Cc1ccc(OCC(=O)OC2CN3CCC2CC3)cc1` (stereo not given), “inactive”. As to `O=P1(Nc2ccc(Br)cn2)COc2ccccc2OC1`, the Potency result is “inactive”. As to `NS(=O)(=O)c1cccc(NC(=O)COC(=O)C(O)(c2ccccc2)c2ccccc2)c1`, the Potency entry is “inactive”. Turning to `Nc1cccc([As](=O)(O)c2ccccc2)c1`, the Potency entry was “inactive”. Turning to `O=C(/C=C/c1ccccc1)OC1CN2CCC1CC2` (stereo not given), the Potency result is “inactive”.

`CN(C)C1(CNC(=O)c2ccc(S(C)(=O)=O)cc2)CCCCC1`: the Potency result was “inactive”. For the compound `Cc1nn(-c2ccccc2)c2c1P(=O)(N1CCOCC1)N(C)C(c1ccccc1)=N2` (stereo not given), the Potency entry was “inactive”.

For `O=[As](O)(c1ccccc1Br)c1ccccc1Br`, the Potency entry was “inactive”. Regarding `CC(C)/C=N\N=C(\N)N[N+](=O)[O-]`, the Potency result is “inactive”. As to `COc1ccccc1CNC(=O)COC(=O)C(O)(c1ccccc1)c1ccccc1`, the Potency result was “inactive”. Under `CC(C)(C)C(=O)NC(Sc1ncccn1)C(Cl)(Cl)Cl` (stereo not given) stands “inactive”; under `Clc1n[nH]nc1-c1nn[nH][15n]1`, “inactive”.

With `CCOP(=O)(Nc1ccc(C)cn1)OCC`, the Potency result is “inactive”. Under `CCOP(=O)(NC(=NC(C)c1ccccc1)NC(C)c1ccccc1)OCC` (stereo not given) stands “inactive”; under `O=P1(Nc2ccccn2)COc2ccccc2OC1`, “inactive”; under `CCC1=CC2Cc3nc4ccc(Cl)cc4c(N)c3C(C1)C2` (stereo not given), active: 10 µM. Turning to `CCC(C)N(CC(C)C)C(=S)SC(NC(C)=O)C(Cl)(Cl)Cl` (stereo not given), the Potency result is “inactive”. As to `COP1(=S)c2c(C)nn(CCC#N)c2N=C(c2ccc(F)cc2)N1C` (stereo not given), the Potency entry was “inactive”.

`O=[N+]([O-])c1ccc(Nc2ccc(Oc3ccc([N+](=O)[O-])cc3[N+](=O)[O-])cc2)c([N+](=O)[O-])c1`: the Potency result was “inactive”.

As for `O=P(Nc1ccccn1)(c1cccc2ccccc12)c1cccc2ccccc12`, the Potency entry was “inactive”. Take `Cc1cc(SC(NC=O)C(Cl)(Cl)Cl)ncn1` (stereo not given): the Potency entry is “inactive”. Regarding `CCOC(=O)Nc1cccc([As](=O)(O)O)c1`, the Potency entry is “inactive”. Under `Cc1cc(SC(NC(=O)c2ccccc2)C(Cl)(Cl)Cl)nc(C(C)C)n1` (stereo not given) stands “inactive”; under `CCCCOc1ccc(C(=O)NCC2(N3CCCCC3)CCCCC2)cc1OC`, “inactive”; under `CCOC(=O)Nc1ccc([As](=O)(O)O)c(O)c1`, “inactive”. `O=[N+]([O-])c1cc([N+](=O)[O-])c(-c2ccn[nH]2)s1`: the Potency entry was “inactive”. For `CC(C)NC(=O)NP(=O)(Oc1ccccc1)Oc1ccccc1`, the Potency result was “inactive”. Under `CCN(CC)C(=S)SC(NC=O)C(Cl)(Cl)Cl` (stereo not given) stands “inactive”; under `Cc1ccc(OP(=O)(Nc2ccc([N+](=O)[O-])cn2)Oc2ccc(C)cc2)cc1`, “inactive”; under `COc1cc(C(=O)NCC2(N3CCOCC3)CCCCC2)ccc1OCC(C)C`, “inactive”.

Turning to `O=[As](O)(c1ccc(O)cc1)c1ccccc1O`, the Potency result was “inactive”.

Regarding `C[As](=O)(O)c1cccc(C(=O)O)c1`, the Potency result was “inactive”.

`COc1ccc(N/C(=N/P(=O)(N2CCOCC2)N2CCOCC2)N2CCOCC2)cc1`: the Potency result is “inactive”. Turning to `COc1cc(I)ccc1[As](=O)(O)O`, the Potency entry was “inactive”. In the case of `O=C(OC1CN2CCC1CC2)C12CC3CC(CC(C3)C1)C2` (stereo not given), the Potency result is “inactive”. Consider `Cc1c2c(nc3ccccc13)SC(C(Cl)Cl)C2` (stereo not given), for which the Potency result is “inactive”.
